According to patent publication US9574014B2, “Chimeric antigen receptor compositions” (City of Hope, priority 2015, dated 2017):

Assays:
Format in all cases: cell-based
[1] = test system: Meditope-AF647; test: Flow cytometry of meHER2-CARs in primary human T cells, Meditope-AF647 staining; conditions: lentivirally transduced primary human T cells; CAR meditope pocket
Experimental: FIG. 11A-11C. Expression of meditope-enabled Fab-CARs in primary human T cells. FIG. 11A, Schematic of meditope (me)-enabled trastuzumab Fab-CAR cassette (meHER2), with the T2A ribosomal skip sequence separating the antibody light chain (meLc) and the heavy chain fused to the IgG4-CH3-Fc linker, CD28 trasmembrane domain (Tm) and the CD28 and CD3ζ cytoplasmic signaling domains (Hc28ζ). Expression is driven by the EF1α promoter and was tested in two orientations: Lc-Hc28ζ and Hc28ζ-Lc. FIG. 11B, Primary human T cells were lentivirally transduced and expression of the meHER2-CARs was evaluated by flow cytometry. Protein L staining, which binds the Fab light chain, confirms cell surface expression of both CAR orientations, with higher expression levels (MFI) observed for the Hc28ζ-Lc (MFI 5357) vs Lc-Hc28ζ (MFI 2592) orientation. Meditope-AF647 staining confirms the functional formation of the CAR meditope pocket, with greater binding to the Hc28ζ-Lc (MFI 6042) vs Lc-Hc28ζ (MFI 2121) orientation.

[2] = test system: Alexa Fluor 488-meditope Fc (MFC); test: Flow cytometry of CAR-transfected CHO-S cells, meditope Fc labeling; conditions: two days
Text: (§1) FIG. 10. CHO-S cells were transfected with either memAb trastuzumab Fab CAR (meCAR) or trastuzumab scFv-CAR (HER2CAR) plasmid for two days. The meCAR and HER2CAR construct differ only in the HER2-targeting component, each linked to CH3, CD28 transmembrane domain and CD3 zeta. A truncated CD19 can also be expressed from the plasmids and serves as a transfection control. The transfected CHO-S cells were filtered with 40 μm filter to remove debris and were washed once with 0.3% BSA-PBS. The cells were then labeled on ice for 1 h with: PE-anti-CD19 or isotype control, biotinylated anti-Fcγ followed by streptavidin-PE, or double-labeled with Pacific Blue-soluble HER2 and Alexa Fluor 488-meditope Fc (MFC). At the end of the incubations, the cells were washed once and resuspended in 800 μl of wash buffer. Sytox blue was added to the unlabeled cells for viability and membrane permeability assessments. Cells were gated with forward and side scatter only. Sytox Blue and Pacific Blue have considerable overlap in their spectra, thus the Sytox Blue signal of the unlabeled samples have “leaked” into the Pacific Blue channel. It has been noted that when CHO-S cells express membrane-bound proteins, their membrane becomes more permeable to Sytox Blue dye as shown with the group of cells in yellow oval.

[3] = target: T1, Pacific Blue-soluble HER2 (Homo sapiens, UniProt P04626); test: Flow cytometry of CAR-transfected CHO-S cells, soluble HER2 labeling; conditions: two days
T1 construct: host or cells: reagent; the stained cells are transiently transfected CHO-S
Text: as §1

soluble HER2 (sHER2) labeling [3] | Substance | Meditope-AF647 staining, binding (MFI) [1] | MFC binding [2]
– | Lc-Hc28ζ: meditope-enabled trastuzumab Fab-CAR, light chain followed by T2A and heavy chain-CD28-CD3ζ | 2121 | –
sHER2 positive | meCAR: memAb trastuzumab Fab CAR linked to CH3, CD28 transmembrane domain and CD3 zeta, in CHO-S cells | – | positive for MFC binding
